Legend:
[1] = Body weight of hypercholesterolemic rabbits (Example 4); assay type: in vivo, New Zealand White rabbits; settings: 2 months; + 1% cholesterol; SDG 5 mg/kg or SDG (89% pure) 11.24 mg/kg, orally daily
Protocol: (§1) Experiments were carried out on six to eight week old female New Zealand white rabbits weighing between 1.8 and 2.0 kg. All procedures relating to the care and welfare of test animals within this experimental protocol conformed to a Standard Operating Procedure (SOP) approved by the Council on Animal Care, University of Saskatchewan, Saskatoon, Saskatchewan, Canada.
(§2) Blood samples for measurement of triglycerides (TG), total cholesterol (TC), low density lipoprotein cholesterol (LDL-C), very-low density lipoprotein cholesterol (VLDL-C), and high density lipoprotein cholesterol (HDL-C) were taken before the animals were assigned to the experimental diet (T=0), and after 1 (T=1) and 2 months (T=2) on the experimental diet. The rabbits were sacrificed under pentabarbital anesthesia at the end of 2 months. The aorta was removed for the assessment of atherosclerotic plaques.
The experiments of Example 1 were repeated using a different group of rabbits and different dosages of SDG. One series of tests were conducted in which SDG in pure form was administered orally in a daily dosage of 5 mg/kg. Another series of tests were conducted in which the SDG was in the form of a crude extract containing 89% by weight of SDG as obtained by the process described in U.S. application Ser. No. 08/415,050.

[2] = Body weight of hypercholesterolemic rabbits (Example 1); assay type: in vivo, New Zealand white rabbits; settings: 2 months; control diet without cholesterol; flaxseed 15% or SDG 15 mg/kg oral
Protocol: as §1, §2
Much has been made of the importance of the composition of certain dietary fats toward health, particularly in relation to the degree of saturation of the fatty acid composition of the triglycerides.

COc1cc(CC(COC2OC(CO)C(O)C(O)C2O)C(COC2OC(CO)C(O)C(O)C2O)Cc2ccc(O)c(OC)c2)ccc1O (centres unmarked) [SDG, secoisolariciresinol diglucoside]
body weight [1]: 2.58 ± 0.08 kg
body weight [2]: 2.84 ± 0.05 kg
